Legend:
[1] = test system: human skeletal muscle cells; assay: Glucose uptake (3H-2-deoxyglucose) in human skeletal muscle cells; assay type: cell-based; conditions: caffeines 0.01 mg/mL, insulin 100 nM
Procedure: (§1) The effect of the crude caffeine extract of Example 1 on glucose uptake in both human adipocytes (fat) and skeletal muscle cells (SMC) was tested (Zen Bio Research, Triangle Park, N.C.).
(§2) Data were analyzed by one-way ANOVA followed by Tukey's post hoc test for multiple comparisons. In FIG. 6, results are expressed as mean±SD. The asterisk * denotes P<0.05 compared with human skeletal muscle cells; the carrot top A denotes P<0.05 compared with untreated human adipocytes.
(§3) Glucose uptake. The in vitro effects of crude caffeine on glucose uptake were assessed with human adipocytes and skeletal muscle cells (Zen-Bio, Research Triangle Park, N.C.). Briefly, primary human subcutaneous adipocytes or primary human myoblasts were differentiated in 96-well microplates. […] All samples, including the positive and negative controls, were tested in triplicate. After a 2-h incubation at 37° C. and 5% CO2, the cells were washed with PBS and lysed. The cell lysate was mixed with scintillation fluid and radioactivity of each well was measured as counts per minute (CPM).

human adipocytes = assay: Glucose uptake (3H-2-deoxyglucose) in human adipocytes; assay type: cell-based; conditions: caffeines 0.01 mg/mL, insulin 100 nM
Procedure: as §1, §2, §3

Substance: insulin
- fold increase in glucose uptake [1]: 2.06 fold
- fold increase in glucose uptake (human adipocytes): 1.6 fold
